This is an account of results in PMC10424242, “Macrocyclic Peptidomimetic Plasmepsin X Inhibitors with Potent In Vitro and In Vivo Antimalarial Activity” (Journal of Medicinal Chemistry, 2023).

By UniProt entry, the sequences of proteins in these tests, tags left out. Residues count along the entry.
UniProt P56817, 46-501: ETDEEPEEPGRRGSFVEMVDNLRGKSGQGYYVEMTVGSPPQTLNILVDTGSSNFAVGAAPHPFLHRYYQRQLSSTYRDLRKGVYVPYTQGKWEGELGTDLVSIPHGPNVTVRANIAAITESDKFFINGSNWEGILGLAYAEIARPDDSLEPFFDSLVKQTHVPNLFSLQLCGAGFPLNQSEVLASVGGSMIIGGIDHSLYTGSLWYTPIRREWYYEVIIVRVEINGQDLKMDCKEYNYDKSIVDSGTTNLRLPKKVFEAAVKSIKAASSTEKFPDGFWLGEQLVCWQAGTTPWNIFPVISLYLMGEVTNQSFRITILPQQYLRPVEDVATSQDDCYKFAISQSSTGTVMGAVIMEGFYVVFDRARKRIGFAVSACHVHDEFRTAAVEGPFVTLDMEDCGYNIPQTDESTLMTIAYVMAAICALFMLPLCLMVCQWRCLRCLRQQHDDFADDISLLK
UniProt P07339, 65-412: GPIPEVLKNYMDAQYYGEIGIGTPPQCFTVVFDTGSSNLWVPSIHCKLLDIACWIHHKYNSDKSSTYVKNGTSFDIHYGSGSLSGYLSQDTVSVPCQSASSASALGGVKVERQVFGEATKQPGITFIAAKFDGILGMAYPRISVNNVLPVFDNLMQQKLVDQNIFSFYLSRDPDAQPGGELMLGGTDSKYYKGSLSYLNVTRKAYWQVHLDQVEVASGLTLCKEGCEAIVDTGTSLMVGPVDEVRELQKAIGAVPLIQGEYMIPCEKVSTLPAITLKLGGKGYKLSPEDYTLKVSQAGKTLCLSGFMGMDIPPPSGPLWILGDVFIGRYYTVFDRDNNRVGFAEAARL

What is called EC50 is the concentration needed to bring the measured effect to its halfway point.

Experiment [1] has as its system P. falciparum strain 3D7 (chloroquine-sensitive). Nature of the experiment: microbe, parasite or virus in culture. The following applies: Plasmodium falciparum, 3D7, 96 h, read-out: flow cytometry 3D7 EC50 (nM).
The subject of experiment [2] is P. falciparum strain Dd2 (chloroquine-resistant). Nature of the experiment: microbe, parasite or virus in culture. The following applies: Plasmodium falciparum, DD2, 96 h, read-out: flow cytometry Dd2 EC50 (nM). In general terms: In flow cytometry, cells or beads pass a laser one at a time.
For another experiment, the target named is BACE1 (Homo sapiens, UniProt P56817). Briefly: FRET-based BACE1 inhibition assay (selectivity counter screen). It is filed as biochemical. The following applies: versus PMX. On the procedure: (§1) A fluorescence resonance energy transfer (FRET)-based assay was performed to assess the ability of the compounds to inhibit PMIV, CatD, and BACE1. Serial dilutions of test compounds were dispensed in a white 96-well plate. […] The mixture was incubated for 20 min at 37 °C. […] IC50 values were calculated with GraphPad Prism 8.0 using the nonlinear regression, variable slope (four parameters). Compounds were tested in triplicate.
(In general: Counterscreens check selectivity or assay interference.)

The target of a further experiment is cathepsin D (CatD) (Homo sapiens, UniProt P07339). Nature of the experiment: FRET-based CatD inhibition assay (selectivity counter screen). It is filed as biochemical. The following applies: versus PMX. As for the experimental part: as §1

Regarding `CCCN1CCCCOc2cccc(c2)C[C@@H]([C@H](O)CNC(C)(C)c2cccc(OC)c2)NC(=O)c2cccc(c2)C1=O` [7a, (S)-4-((R)-1-Hydroxy-2-((2-(3-methoxyphenyl)propan-2-yl)amino)ethyl)-12-propyl-7-oxa-3,12-diaza-1,6(1,3)-dibenzenacyclotridecaphane-2,13-dione], the EC50 amounted to 1 ± 0.3 nM in experiment [1] and 4.7 ± 0.5 nM in experiment [2].

On to `COc1cccc(C(C)(C)NC[C@@H](O)[C@@H]2Cc3cccc(c3)OCCCCNC(=O)c3cccc(c3)C(=O)N2)c1` [7b, (S)-4-((R)-1-Hydroxy-2-((2-(3-methoxyphenyl)propan-2-yl)amino)ethyl)-7-oxa-3,12-diaza-1,6(1,3)-dibenzenacyclotridecaphane-2,13-dione], for which the results for the concentration for a half-maximal effect (EC50) in experiment [1] and in experiment [2] were 6.4 ± 0.9 nM and 13.1 ± 3.1 nM, respectively.

Turning to `COc1cccc(C(C)(C)NC[C@@H](O)[C@@H]2Cc3cccc(c3)OCCCCN(C)C(=O)c3cccc(c3)C(=O)N2)c1` [7c, (S)-4-((R)-1-Hydroxy-2-((2-(3-methoxyphenyl)propan-2-yl)amino)ethyl)-12-methyl-7-oxa-3,12-diaza-1,6(1,3)-dibenzenacyclotridecaphane-2,13-dione], the EC50 in experiment [1] was determined as 2.6 ± 0.1 nM; in experiment [2], 4.9 ± 0.9 nM.

Regarding `COc1cccc(C(C)(C)NC[C@@H](O)[C@@H]2Cc3cccc(c3)OCCCCN(CCC(F)(F)F)C(=O)c3cccc(c3)C(=O)N2)c1` [7d, (S)-4-((R)-1-Hydroxy-2-((2-(3-methoxyphenyl)propan-2-yl)amino)ethyl)-12-(3,3,3-trifluoropropyl)-7-oxa-3,12-diaza-1,6(1,3)-dibenzenacyclotridecaphane-2,13-dione], the EC50 in experiment [1] is 6.2 ± 1 nM; in experiment [2], 9.5 ± 1.4 nM.

As for `COc1cccc(C(C)(C)NC[C@@H](O)[C@@H]2Cc3cccc(c3)OCCCCN(CC(C)(C)C)C(=O)c3cccc(c3)C(=O)N2)c1` [7e], the concentration for a half-maximal effect (EC50) in experiment [1] is 2.2 ± 0.6 nM; in experiment [2], 3.5 ± 0.4 nM.

`COc1cccc(C(C)(C)NC[C@@H](O)[C@@H]2Cc3cccc(c3)OCCCCN(CCN(C)C)C(=O)c3cccc(c3)C(=O)N2)c1` [7f, (S)-12-(2-(Dimethylamino)ethyl)-4-((R)-1-hydroxy-2-((2-(3-methoxyphenyl)propan-2-yl)amino)ethyl)-7-oxa-3,12-diaza-1,6(1,3)-dibenzenacyclotridecaphane-2,13-dione]: the half-maximal effective concentration (EC50) worked out at 6.5 ± 1.2 nM in experiment [1] and 9.6 ± 0.7 nM in experiment [2].

Turning to `CCCN1CCCCCOc2cccc(c2)C[C@@H]([C@H](O)CNC(C)(C)c2cccc(OC)c2)NC(=O)c2cccc(c2)C1=O` [7g, (S)-4-((R)-1-Hydroxy-2-((2-(3-methoxyphenyl)propan-2-yl)amino)ethyl)-13-propyl-7-oxa-3,13-diaza-1,6(1,3)-dibenzenacyclotetradecaphane-2,14-dione], the figures for the EC50 in experiment [1] and in experiment [2] were 6.7 ± 2.3 nM and 9.6 ± 1 nM, respectively.

As for `CCCN1CCOc2cccc(c2)C[C@@H]([C@H](O)CNC(C)(C)c2cccc(OC)c2)NC(=O)c2cccc(c2)C1=O` [7h], the EC50 in experiment [1] is 0.8 ± 0.4 nM; in experiment [2], 6.7 ± 1 nM.

Regarding `CCCN1CCOCCc2cccc(c2)C[C@@H]([C@H](O)CNC(C)(C)c2cccc(OC)c2)NC(=O)c2cccc(c2)C1=O` [7i, (S)-4-((R)-1-Hydroxy-2-((2-(3-methoxyphenyl)propan-2-yl)amino)ethyl)-12-propyl-9-oxa-3,12-diaza-1,6(1,3)-dibenzenacyclotridecaphane-2,13-dione], the EC50 in experiment [1] and in experiment [2] was 2 ± 0.3 nM each time.

On to `CCCN1CCCCc2cccc(c2)C[C@@H]([C@H](O)CNC(C)(C)c2cccc(OC)c2)NC(=O)c2cccc(c2)C1=O` [7j, (S)-4-((R)-1-Hydroxy-2-((2-(3-methoxyphenyl)propan-2-yl)amino)ethyl)-11-propyl-3,11-diaza-1,6(1,3)-dibenzenacyclododecaphane-2,12-dione], for which the values for the EC50 in experiment [1] and in experiment [2] were 2.7 ± 0.5 nM and 4.4 ± 0.5 nM, respectively.

On to `CCCN1CCCCCc2cccc(c2)C[C@@H]([C@H](O)CNC(C)(C)c2cccc(OC)c2)NC(=O)c2cccc(c2)C1=O` [7k, (S)-4-((R)-1-Hydroxy-2-((2-(3-methoxyphenyl)propan-2-yl)amino)ethyl)-12-propyl-3,12-diaza-1,6(1,3)-dibenzenacyclotridecaphane-2,13-dione], for which the values for the EC50 in experiment [1] and in experiment [2] were 0.6 ± 0.1 nM and 0.9 ± 0.2 nM, respectively. The “selectivity against BACE1” value at BACE1 is > 100 ×. The “selectivity against CatD” value on cathepsin D (CatD) was > 100 ×.
